Laboratory results taken from patent US8633212B2, “Inhibitors of beta-secretase” (Vitae Pharmaceuticals, Inc., priority 2009, dated 2014).

Key:
[1] = target: truncated human beta-secretase (residues 1-458, His6-tagged at the C-terminus) (Homo sapiens (Human), UniProt P56817); experiment: BACE enzyme assay (fluorescence quench assay, Example 434A); format: biochemical
[2] = target: H4 neuroglioma cell line stably expressing APP with the KM-NL Swedish mutation (H4-APPsw); soluble Amyloid Beta 1-40 (Aβ 1-40) (Homo sapiens (Human), UniProt P56817); experiment: BACE cell assay: soluble Aβ 1-40 in culture media of H4-APPsw cells (AlphaLISA/ELISA); format: cell-based; conditions: in vitro cell activity; H4-APPsw cells treated overnight, secreted Aβ 1-40 in culture media

Row | Compound | IC50 ([1]; footnote a: protocols described in Example 434A) [nM] | IC50 [1] [nM] | IC50 [2] [nM]
1 | CN1O[C@]2(N=C1N)c1cc(-c3cccc(C#N)c3)ccc1C[C@]21CCc2ccccc2C1 [Compound 60] | 1860 | – | –
2 | CN1OC2(N=C1N)c1cc(-c3cccc(C#N)c3)ccc1CC21CCc2ccccc2C1 (stereo not drawn) [Compound 45, 3-(spiro[spiro[2,3-dihydro-indene-2,2′-tetrahydronaphthalene]-1,5′-(3-amino-2-methyl-2H-[1,2,4]oxadiazole)]-6-yl)benzonitrile] | – | 195 | < 5000

Where two headings read alike, the source gives them in different places.
